Bioassay records: PubChem, Broad Institute
INS-1E GSIS act – primary screen for activators of insulin secretion dependent on glucose, INS-1E cells, GLuc reporter luminescence; INS-1E GLuc reporter insulin secretion, 2-3 h; activation, % at 16.6 µM; 0.61% of 370,000 active; AID 743287;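 active = lowest replicate activation of at least 40%, so every replicate reaches that level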
PglD inh – blocks C. jejuni PglD acetyltransferase activity; purified PglD enzyme, DTNB colorimetric CoA detection; inhibition, % at 12.5 µM; 0.098% of 360,000 active; in the data active = inhibition above about 16%, passing the limit was not always enough
RAD54 inh – blocks human RAD54 Holliday junction branch migration; Q92698; FAM/BHQ fluorescence; inhibition, % at 10.4 µM; 0.14% of 360,000 active; AID 602329;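 active = mean normalized replicate activity at least 40 and at least half of replicates scoring 40 or more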;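 note: inhibitors cause a drop in the FAM fluorescence signal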
Yeast UUG start – alters start codon recognition fidelity in yeast; S. cerevisiae UUG-firefly luciferase reporter, luminescence/redox ratio; activity score, % at 18.7 µM; actives 0.13% (n = 350,000);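 active means replicate mean at a twofold rise or more, about +100% in these data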;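 further: firefly luciferase made from a UUG start codon reports start codon fidelity; reporter light over untreated wells divided by growth signal over untreated wells; some hits fall short of that in this replicate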
CASP6 VEID inh – blocks human caspase-6 cleavage activity; P55212; purified caspase-6, Z-VEID-R110 cleavage fluorescence; inhibition, % at 12.5 µM; 0.53% of 350,000 active; AID 686996;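 active = mean inhibition across replicates at least about 35%, with every replicate also reaching that limit, limit read from the data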
RAD52 anneal inh – blocks human RAD52 DNA annealing. P43351. recombinant RAD52 DNA annealing, FRET fluorescence. inhibition, % at 18.7 µM. 0.46% of 360,000 active. AID 651710;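 active = every replicate showing at least 50% inhibition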
PglD inh SP – blocks Campylobacter jejuni PglD acetyltransferase activity; shares compounds with PglD inh; Purified C. jejuni PglD, DTNB absorbance 412 nm; inhibition, % at 20 µM; 320 tested, under 10 active; AID 743156;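 active = mean inhibition across replicates of at least 20% with every single replicate also at 20% or more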;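 note: initial rate of CoA release by acetyl transfer from AcCoA to the UDP-4-amino sugar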
RAD52 DNA ctr – DNA binding artifact in RAD52 counter-screen; shares compounds with RAD52 anneal inh; Salmon sperm DNA/acridine orange FP displacement; AC50, µM; 8% of 1,000 active; AID 652128;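 active = fitted half-maximal concentration for signal loss at or below twice the highest dose tested, in every separate run, actives reach about 64 µM in these data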
Each line names hits and unclear results; the compound was inactive in the other large screens (follow-up assays come after a bar, where they were run). In the library only some 1.5% were active in any assay of this set; here they are far more common.

Cc1cc(OCC(=O)O)c2cccc(C)c2n1	none (no result: INS-1E GSIS act, CASP6 VEID inh, RAD52 anneal inh)
CCc1nc2ccc(C(=O)NCCOc3ccc(OC)cc3)cn2c1N(C)C(=O)COc1ccccc1	none
COc1ccc(OC)c(NC(=O)CSc2nnc(CNC(=O)COc3ccc(Cl)cc3)o2)c1	none
C/C(=N/NC(=O)c1ccc(Cl)s1)c1ccc(NC(=O)COc2ccc(Cl)cc2)cc1	none (no result: INS-1E GSIS act, CASP6 VEID inh, RAD52 anneal inh)
C/C(=N/NC(=O)c1cccs1)c1ccc(NC(=O)COc2ccc(Cl)cc2Cl)cc1	PglD inh 21 (no result: INS-1E GSIS act, CASP6 VEID inh, RAD52 anneal inh) | PglD inh SP inactive
COC(=O)c1cccc(Nc2ncnc3ccc(C)cc23)c1	none
CC(c1ccccc1)n1c(CO)nc2ccccc21 (configuration not stated)	PglD inh 67 | PglD inh SP inactive
Cc1nc2ccccc2n1C(C)c1ccccc1 (configuration not stated)	none
CCCc1nc2c(sc3nc4c(cc32)COC(C)(C)C4)c(=O)n1CCN(C)C	none (no result: PglD inh, RAD54 inh, Yeast UUG start)
Cc1ccccc1NC(=O)COC(=O)C1=COCCO1	none
COC(=O)C1SCC2C(=O)N(Cc3ccc(F)cc3)CC(=O)N21 (configuration not stated)	PglD inh 26 | PglD inh SP inactive
CCCCNc1ccccc1C(=O)OCC(=O)Nc1ccc(S(N)(=O)=O)cc1	none (no result: INS-1E GSIS act, CASP6 VEID inh, RAD52 anneal inh)
CCC(=O)Nc1ccccc1C(=O)OCC(=O)Nc1ccc(S(N)(=O)=O)cc1	PglD inh 31 (no result: CASP6 VEID inh, RAD52 anneal inh) | PglD inh SP inactive
O=C(OCC(=O)N1CCC(Cc2ccccc2)CC1)c1ccc(O)cc1	PglD inh 24 | PglD inh SP inactive
COc1ccc(CNC(=O)c2ccc(-n3cncn3)c3ccoc23)cc1OC	none
O=C(NCc1cccc(Cl)c1)c1ccc(-n2cncn2)c2ccoc12	PglD inh 22 | PglD inh SP inactive
CC(=O)NCC(=O)OCC(=O)c1ccc(Cl)cc1	PglD inh 26 | PglD inh SP inactive
CC1=NN(S(=O)(=O)c2ccc(F)cc2)C(=O)c2ccccc2O1	none (no result: INS-1E GSIS act, CASP6 VEID inh, RAD52 anneal inh)
CCOc1cc(N2CCOCC2)c(OCC)cc1NC(=O)COC(=O)COc1ccc(C#N)cc1	PglD inh 33 | PglD inh SP inactive
CCOc1ccc(NC2c3ccccc3C(=O)N2Cc2ccco2)cc1 (configuration not stated)	none (no result: INS-1E GSIS act)
CC(C)c1nc2ccc(NC(=O)C3CCCCC3)cc2[nH]1	PglD inh 34 (no result: CASP6 VEID inh, RAD52 anneal inh) | PglD inh SP inactive
O=C(Nc1ccc2nc(-c3ccccn3)[nH]c2c1)C1CCCCC1	none (no result: INS-1E GSIS act, CASP6 VEID inh, RAD52 anneal inh)
CC1CN2C(c3ccc([N+](=O)[O-])cc3)=CSC2=N1 (configuration not stated)	PglD inh 75 | PglD inh SP inactive
COc1ccc(S(=O)(=O)N(C)C[C@H]2Oc3ccc(NC(=O)C4CCCCC4)cc3C(=O)N([C@H](C)CO)C[C@H]2C)cc1	none
CCOc1ccc2nc(SCC(=O)NCC3CCCO3)sc2c1 (configuration not stated)	none
CCOc1ccc2[nH]c3nc(SCC(=O)NCC4CCCO4)nnc3c2c1 (configuration not stated)	PglD inh 24 | PglD inh SP inactive
Cc1noc(C)c1S(=O)(=O)Nc1ccc2c(c1)C(=O)N([C@@H](C)CO)C[C@H](C)[C@@H](CN(C)CC1CCCCC1)OCCCC[C@@H](C)O2	none
COc1ccccc1NC(=S)NC12CN3CN(CN(C3)C1)C2	RAD52 anneal inh 79 (no result: PglD inh, RAD54 inh, Yeast UUG start) | RAD52 DNA ctr inactive
Cc1ccccc1NC(=S)NC12CN3CN(CN(C3)C1)C2	none (no result: PglD inh, RAD54 inh, Yeast UUG start)
CC(C)Cc1nnc(NC(=O)CCC(=O)NC2CCCCCC2)s1	none
CCN(CC)CCNC(=O)CCc1c(C)nc2c(c(C)nn2-c2ccc(C)c(C)c2)c1C	none | RAD52 DNA ctr inactive
COCCCNC(=O)CCc1c(C)nc2c(c(C)nn2-c2ccccc2)c1C	none
O=C(CCN1CCOCC1)Nc1ccc(F)cc1	none
Nc1ccc(NC(=O)CCN2CCOCC2)cc1	RAD52 anneal inh 60 | RAD52 DNA ctr inactive
CS(=O)(=O)c1ccc2nc(NC(=O)CN3CCOCC3)sc2c1	none
O=C(c1ccc(-c2cc(O)c3ncccc3c2)cc1)N1CCNCC1	RAD52 anneal inh 101 (no result: INS-1E GSIS act) | RAD52 DNA ctr inactive
